# Binding of CDR-mutated scFvs to a peptide of the spike HR2 region

From the AlphaSeq antibody data of Li et al. 2023 (doi:10.1038/s41467-023-39022-2), copy in the FLAb collection.

The target is the same throughout: PDVDLGDISGINAS, from the HR2 region of SARS-CoV-2 spike.

Each scFv is VH, three GGGGS repeats, VL, as in the parent Ab-14, and differs from it in the CDRs of the light chain only.
VH: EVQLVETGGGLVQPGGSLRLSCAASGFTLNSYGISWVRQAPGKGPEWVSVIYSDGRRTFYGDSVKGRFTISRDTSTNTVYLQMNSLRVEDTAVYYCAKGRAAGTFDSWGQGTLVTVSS
VL: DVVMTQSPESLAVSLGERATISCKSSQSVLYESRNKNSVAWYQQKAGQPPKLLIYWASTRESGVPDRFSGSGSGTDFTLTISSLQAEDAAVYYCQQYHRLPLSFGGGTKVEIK

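Designed CDR sequences, proposed from the first random library and measured here. Their group label is 14L_GP_Gibbs (GP: Gaussian process model; Gibbs: Gibbs sampling; a sequence that several methods proposed may carry one label only). The assay is AlphaSeq: two haploid yeast populations carry antibody and antigen on their surface. Binding brings cells together so that they mate, and sequencing counts the barcode pairs among the diploids. A regression on co-assayed BCL2-family reference pairs converts the normalised counts of each replicate to an apparent Kd. Each pool was mated in six replicate cultures.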

Substitutions are numbered in sequence along the VL above, starting at 1 (not Kabat). Affinities are written as log10 Kd with Kd in nM; a lower number is a better binder. The mean shown is taken over the replicates in which the pair was detected. An entry "n.d." has no value in the source: the pair was not observed among the diploids in that replicate. This suggests poor binding but is not conclusive. Three control strains display no target. For all light chain designs, 4% of the pairings with them gave a signal, with a median of 2.64 and one signal in twenty below 1.59, so weak values seen in few replicates may be background. Also given: how often the same scFv was detected with the empty control strains, with their mean in brackets. Values of this round are not directly comparable with the first-round values of the same sequences. In the paper, a design with two or fewer of six values counts as a poor binder.

changes,"log10 Kd, replicates","mean, log10 nM",control signals
S25V/S26M/Y31G/E32L/S33Q/N35A/K36Q/W56E,-0.09 -0.28 -0.34 -0.33 -0.29 -0.07,-0.23,1 of 18 (3.28)
S25V/V29A/L30P/Y31M/K36A/W56N/S62E,-0.04 0.02 -0.05 -0.08 -0.02 0.09,-0.02,0 of 18
S26E/S28G/L30D/Y31D/E32L/S33E/K36D,1.83 2.55 2.09 1.44 1.51 1.57,1.83,2 of 18 (2.46)
S25Y/S28Q/V29N/S33Q/K36F/W56N/T59Y,0.36 0.41 0.10 -0.01 0.13 0.19,0.19,2 of 18 (2.14)
S25L/S26P/V29M/L30E/N35M/W56A,-0.04 -0.06 -0.15 0.05 -0.13 0.24,-0.01,0 of 18
S25D/S26Q/S28F/V29Y/L30E/Y31G/W56S,0.62 0.38 1.01 1.10 0.71 1.11,0.82,1 of 18 (1.88)
S25L/S26F/V29Y/L30E/W56N/T59Q/S62W,0.66 0.21 0.27 0.11 0.22 0.22,0.28,0 of 18
S25V/Q27M/S28L/V29H/L30W/S33Q/W56E/S62Q,0.55 0.19 0.27 0.00 0.33 0.54,0.31,0 of 18
S25L/L30E/Y31Q/E32L/W56Q/T59Q/S62V/Q96A,0.40 0.20 0.10 -0.19 0.09 0.36,0.16,5 of 18 (3.64)
Q27P/V29Q/L30Y/S33D/N35E/K36F/W56H/T59Q,n.d. n.d. n.d. n.d. n.d. n.d.,n.d.,0 of 18
S25L/S26V/Q27E/V29E/K36S/W56N/T59Y,0.35 0.22 -0.05 0.23 0.15 0.46,0.23,0 of 18
S25V/V29E/L30W/N35W/W56N/T59Q,0.68 0.50 0.60 0.57 1.07 0.76,0.70,0 of 18
S25L/S26D/Q27G/V29D/L30N/W56E/T59E,-0.26 -0.49 -0.79 -0.24 -0.33 -0.02,-0.35,0 of 18
S25L/Q27M/V29W/L30M/Y31Q/S33E/W56Q/S62Q,-0.14 -0.30 -0.35 -0.43 -0.24 -0.11,-0.26,1 of 18 (2.54)
S25L/Q27A/L30E/S33D/W56H/S62Q/S103M,-0.12 -0.01 -0.02 -0.20 -0.11 0.04,-0.07,0 of 18
K24A/L30M/Y31G/S33E/K36S/W56A/S62V,0.31 0.72 0.61 0.50 0.56 0.39,0.51,0 of 18
S25I/S28A/V29Y/S33D/W56N/S58N/T59Q,-0.12 -0.07 -0.32 -0.40 -0.19 -0.19,-0.22,3 of 18 (3.46)
S25L/V29N/L30K/N35M/W56N/T59Q/E61M/S62C,0.33 0.26 -0.32 -0.61 -0.51 0.03,-0.13,0 of 18
S25M/S26L/V29N/W56N/S62W,0.04 0.02 -0.17 0.09 -0.14 0.21,0.01,0 of 18
S25L/S26M/S28L/V29G/L30H/K36A/S38N/W56N/S62Q,-0.06 0.00 -0.23 0.02 0.02 0.14,-0.02,1 of 18 (2.08)
Q27I/L30E/E32Q/S33D/N35L/K36S/W56D/T59Q/S62W,0.34 0.21 0.11 -0.05 0.01 0.17,0.13,1 of 18 (3.00)
S25V/S28E/V29M/N35M/K36A/W56N/T59Q/S62E,1.15 1.12 0.88 0.95 1.00 1.24,1.06,0 of 18
S25L/S26M/S28G/L30E/Y31M/W56N/T59K/S62E,-0.41 0.10 -0.28 -0.54 -0.24 0.14,-0.21,0 of 18
K24V/S25L/S26Q/V29G/Y31M/W56S/E61L/S62P,0.68 0.59 0.50 0.48 0.60 0.49,0.56,2 of 18 (2.61)
S25L/S26Q/Q27G/V29D/N35M/W56Q/T59V,0.41 0.36 -0.19 0.53 0.51 0.40,0.34,0 of 18
S25L/S26M/Q27G/V29S/W56N/S62V,-0.12 -0.23 -0.16 -0.43 -0.25 -0.16,-0.23,1 of 18 (2.45)
S25L/V29E/N35C/K36A/S38N/W56N/T59Q,0.75 0.67 0.63 0.32 0.67 0.73,0.63,1 of 18 (2.09)
S25L/Q27E/S28D/V29A/W56N/S62V,-0.30 -0.21 -0.37 -0.35 -0.22 -0.23,-0.28,0 of 18
S25L/V29F/L30W/S33E/W56N/T59K,0.06 -0.17 -0.20 -0.43 -0.35 -0.16,-0.21,1 of 18 (1.98)
S25W/S26E/L30M/Y31G/W56N/E61M,0.23 0.21 0.05 0.06 0.03 0.28,0.14,1 of 18 (2.59)
S25V/S26Q/V29E/Y31G/E32L/W56E/T59K,0.34 0.16 -0.09 0.13 0.19 0.41,0.19,3 of 18 (1.71)
K24L/S25W/V29E/Y31L/K36H/W56D/E61C/S62D,0.43 0.28 0.32 0.02 0.32 0.37,0.29,1 of 18 (2.38)
S25V/Q27G/V29H/L30D/W56H/E61C/Q96D,0.70 0.80 0.29 0.23 0.35 0.62,0.50,0 of 18
S25L/S26Q/Q27W/V29W/K36W/W56D/T59Q,0.21 -0.04 -0.03 0.07 -0.04 0.09,0.04,0 of 18
K24F/V29W/Y31M/S33Q/K36D/W56S/S62D,1.43 0.97 0.87 0.39 0.81 1.41,0.98,0 of 18
S25L/S26E/Q27G/V29E/K36A/W56N/E61M/H98K,0.09 -0.02 0.04 -0.32 -0.08 0.16,-0.02,2 of 18 (2.52)
S25L/S28Q/V29G/L30H/E32G/K36A/W56N/T59Q/S62Q,0.64 -0.06 -0.34 0.39 -0.14 0.36,0.14,0 of 18
Q27I/V29M/S33E/K36D/W56N/T59Q,0.25 0.11 0.15 0.14 0.17 0.41,0.20,1 of 18 (2.42)
S25L/Q27F/V29N/L30G/S33D/W56Q/E61L/S62M,0.27 0.16 -0.02 0.12 0.22 0.36,0.19,0 of 18

The first 6 entries again:

changes	log10 Kd, replicates	mean, log10 nM	control signals
S25V/S26M/Y31G/E32L/S33Q/N35A/K36Q/W56E	-0.09 -0.28 -0.34 -0.33 -0.29 -0.07	-0.23	1 of 18 (3.28)
S25V/V29A/L30P/Y31M/K36A/W56N/S62E	-0.04 0.02 -0.05 -0.08 -0.02 0.09	-0.02	0 of 18
S26E/S28G/L30D/Y31D/E32L/S33E/K36D	1.83 2.55 2.09 1.44 1.51 1.57	1.83	2 of 18 (2.46)
S25Y/S28Q/V29N/S33Q/K36F/W56N/T59Y	0.36 0.41 0.10 -0.01 0.13 0.19	0.19	2 of 18 (2.14)
S25L/S26P/V29M/L30E/N35M/W56A	-0.04 -0.06 -0.15 0.05 -0.13 0.24	-0.01	0 of 18
S25D/S26Q/S28F/V29Y/L30E/Y31G/W56S	0.62 0.38 1.01 1.10 0.71 1.11	0.82	1 of 18 (1.88)